Results: patent publication US11497740B2, “Use of Jumonji C demethylase inhibitors for the treatment and prevention of chemotherapy resistance and radioresistance in cancer” (THE BOARD OF REGENTS OF THE UNIVERSITY OF TEXAS SYSTEM, priority 2016, dated 2022)

What was measured:
H1299 T18 = test: MTS cell viability assay, H1299 T18 resistant variant vs H1299 Parental; assay type: cell-based, human; conditions: SR = [IC50 of Parental]/[IC50 of Resistant]
Procedure: (§1) NSCLC lines were treated with paclitaxel+carboplatin combination, given in a ˜2:3 wt/wt ratio, to mirror the clinical dosage values of ˜225 mg/m2 and ˜330 mg/m2, paclitaxel and carboplatin respectively. Note that considering the molecular weights of the two drugs, this translates to approximately a 1 to 3.4 molar ratio. Drugs were given in cycles, following a drug on/drug off treatment scheme. Each cycle consisted of 4-5 days of drug treatment and drug-free culturing for about 1-2 weeks or more to allow the surviving cells to repopulate the plate. […] Untreated parental cells were simultaneously maintained at all times for comparison. Cell viability was assessed in 96-well plates using standard MTS assays (Promega). Treatment duration in MTS assays was 4 days. Drugs were tested in two- or four-fold serial dilutions, totaling 8 different drug concentrations, with 8 replicates per concentration. Response was validated in multiple replicate plates (n≥3).
(§2) Cell viability was assessed by standard MTS assays using Promega's CellTiter reagents. Eight drug concentrations given as two- or four-fold dilutions were tested for each chemotherapeutic agent. In addition, each experiment contained eight replicates per concentration and the entire assay was performed in multiple replicates (n≥3).

H1299 T18 cells = test: Microarray gene expression after 24 h treatment, H1299 T18 cells; assay type: cell-based, human
Procedure: Gene expression profiling was performed using Illumina HumanWG-6 V3 BeadArrays (for NSCLC patient tumors) or Illumina HumanHT-12 V4 BeadArrays (for cell lines and xenografts). […] Data were pre-processed using the R package mbcb for background correction (Ding et al., 2008), then log-transformed and quantile-normalized with the R package preprocessCore or using in-house MATRIX software ([…]). Microarray data can be found under GEO accession GSE77209. Log ratios, unpaired t-test p values and color-coded heat maps were obtained using MATRIX. For comparisons involving progressively resistant cell line series, analyses were performed using R package by fitting linear regression model on gene expression data against the log transformed IC50 values as measures of drug response. We fitted beta-uniform mixture model to a set of p-values using the R package ClassComparison. […] For xenograft data, differential gene expression analysis was performed by student's t-test. Using 35 gene signature, unsupervised hierarchical clustering (Eisen et al., 1998) was performed to separate neoadjuvant chemotherapy treated patients into two groups. Clustering was based on Euclidean distance matrix and maximum linkage method. Kaplan-Meier survival analysis and multivariate Cox regression were performed by R survival package and replotted using Graphpad Prism 6.00 (GraphPad Software, La Jolla, Calif. USA). […]

H1355 T16 = test: MTS cell viability assay, H1355 T16 resistant variant vs H1355 Parental; assay type: cell-based, human; conditions: SR = [IC50 of Parental]/[IC50 of Resistant]
Procedure: as §1, §2

[1] = test system: H1355 Parental xenografts; test: Subcutaneous xenograft drug response, H1355 Parental; assay type: in vivo, mice; conditions: GSK-J4 100 mg/kg i.p. 5x per week; JIB-04 50 mg/kg oral gavage 3x per week; 4 weeks
Procedure: (§3) Animals were housed under standard, sterile conditions at UTSW animal facility. All experiments were carried out under approved IACUC protocols and followed UTSW animal care procedures. For tumor growth rate studies and docetaxel+cisplatin drug response comparisons, 6-8 week old female NOD/SCID mice were used. For all subsequent in vivo drug response studies, 6 week old female athymic nude mice were used (Charles River Labs, Jackson Labs). Experimental details are provided in supplemental information.
(§4) Parental and resistant NSCLC cell lines (1×10^6 cells in PBS or RPMI for H1299; 5×10^6 cells in PBS/matrigel for H1355 and HCC4017) were injected subcutaneously into the right flank of mice. Tumor growth was monitored by caliper measurements and tumor volume was calculated by 0.5×length×width^2). Treatment was started when tumors reached ˜150-200 mm3. Drug/Vehicle therapy was given to tumor volume matched pairs. Docetaxel (3 mg/kg) and cisplatin (3 mg/kg) were given i.p. once a week for 3 weeks. […]

H1355 T16 xenografts = conditions: GSK-J4 100 mg/kg i.p. 5x per week; JIB-04 50 mg/kg oral gavage 3x per week; 4 weeks
Procedure: as §3, §4

SMILES: CCOC(=O)CCNc1cc(N2CCc3ccccc3CC2)nc(-c2ccccn2)n1 [GSK-J4]
- H1299 T18 SR (Selectivity Ratio) (H1299 T18): 22.3
- top reversed down-regulated gene, fold change (down) (H1299 T18 cells; LEAP2 for JIB-04, TAF9B for GSK-J4): ~3 fold
- top reversed up-regulated gene, fold change (up) (H1299 T18 cells; YPEL2 for JIB-04, BNIP3 for GSK-J4): ~10 fold
- H1355 T16 SR (Selectivity Ratio) (H1355 T16): 10.4
- change in tumor volume relative to treatment start [1]: continued to grow in volume
- change in tumor volume relative to treatment start (H1355 T16 xenografts): significant tumor shrinkage
